Earlier results as cited in US8574837B2, “System for screening agonists/antagonists of cellular signaling pathways” (President and Fellows of Harvard College, priority 2008, dated 2013).

Legend:
SmoA1 = settings: cited from earlier work
[1] = test system: mouse medulloblastoma cells; settings: in culture; cited from earlier work
[2] = test system: mouse medulloblastoma cells; settings: mouse allograft models; cited from earlier work

CC1=C2C[C@H]3[C@@H](CC=C4C[C@@H](O)CC[C@@]43C)[C@@H]2CC[C@]12O[C@@H]1C[C@H](C)CN[C@H]1[C@H]2C [cyclopamine]
Inhibition of SmoA1 activity, dose relative to wild-type Smo (SmoA1): has to be applied at a much higher dose to block SmoA1 activity | Rate of growth of mouse medulloblastoma cells [1]: decrease the rate of growth | Rate of growth of mouse medulloblastoma cells [2]: decrease the rate of growth

Like-named read-outs stand apart in the source and are kept apart here.
